Data on 21 molecules can be found in PubChem BioAssay AID1817 (Sanford-Burnham Center for Chemical Genomics, 2009).

By UniProt entry, the sequences of proteins in these tests, tags left out.
UniProt Q8IUQ4, whole entry: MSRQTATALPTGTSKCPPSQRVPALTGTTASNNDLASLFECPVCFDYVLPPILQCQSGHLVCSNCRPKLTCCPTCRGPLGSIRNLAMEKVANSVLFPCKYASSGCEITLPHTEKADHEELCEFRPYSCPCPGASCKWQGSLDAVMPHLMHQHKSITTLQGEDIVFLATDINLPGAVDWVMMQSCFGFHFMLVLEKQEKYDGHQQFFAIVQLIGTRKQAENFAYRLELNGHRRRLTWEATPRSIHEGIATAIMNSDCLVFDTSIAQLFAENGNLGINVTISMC
UniProt Q15149, whole entry partner: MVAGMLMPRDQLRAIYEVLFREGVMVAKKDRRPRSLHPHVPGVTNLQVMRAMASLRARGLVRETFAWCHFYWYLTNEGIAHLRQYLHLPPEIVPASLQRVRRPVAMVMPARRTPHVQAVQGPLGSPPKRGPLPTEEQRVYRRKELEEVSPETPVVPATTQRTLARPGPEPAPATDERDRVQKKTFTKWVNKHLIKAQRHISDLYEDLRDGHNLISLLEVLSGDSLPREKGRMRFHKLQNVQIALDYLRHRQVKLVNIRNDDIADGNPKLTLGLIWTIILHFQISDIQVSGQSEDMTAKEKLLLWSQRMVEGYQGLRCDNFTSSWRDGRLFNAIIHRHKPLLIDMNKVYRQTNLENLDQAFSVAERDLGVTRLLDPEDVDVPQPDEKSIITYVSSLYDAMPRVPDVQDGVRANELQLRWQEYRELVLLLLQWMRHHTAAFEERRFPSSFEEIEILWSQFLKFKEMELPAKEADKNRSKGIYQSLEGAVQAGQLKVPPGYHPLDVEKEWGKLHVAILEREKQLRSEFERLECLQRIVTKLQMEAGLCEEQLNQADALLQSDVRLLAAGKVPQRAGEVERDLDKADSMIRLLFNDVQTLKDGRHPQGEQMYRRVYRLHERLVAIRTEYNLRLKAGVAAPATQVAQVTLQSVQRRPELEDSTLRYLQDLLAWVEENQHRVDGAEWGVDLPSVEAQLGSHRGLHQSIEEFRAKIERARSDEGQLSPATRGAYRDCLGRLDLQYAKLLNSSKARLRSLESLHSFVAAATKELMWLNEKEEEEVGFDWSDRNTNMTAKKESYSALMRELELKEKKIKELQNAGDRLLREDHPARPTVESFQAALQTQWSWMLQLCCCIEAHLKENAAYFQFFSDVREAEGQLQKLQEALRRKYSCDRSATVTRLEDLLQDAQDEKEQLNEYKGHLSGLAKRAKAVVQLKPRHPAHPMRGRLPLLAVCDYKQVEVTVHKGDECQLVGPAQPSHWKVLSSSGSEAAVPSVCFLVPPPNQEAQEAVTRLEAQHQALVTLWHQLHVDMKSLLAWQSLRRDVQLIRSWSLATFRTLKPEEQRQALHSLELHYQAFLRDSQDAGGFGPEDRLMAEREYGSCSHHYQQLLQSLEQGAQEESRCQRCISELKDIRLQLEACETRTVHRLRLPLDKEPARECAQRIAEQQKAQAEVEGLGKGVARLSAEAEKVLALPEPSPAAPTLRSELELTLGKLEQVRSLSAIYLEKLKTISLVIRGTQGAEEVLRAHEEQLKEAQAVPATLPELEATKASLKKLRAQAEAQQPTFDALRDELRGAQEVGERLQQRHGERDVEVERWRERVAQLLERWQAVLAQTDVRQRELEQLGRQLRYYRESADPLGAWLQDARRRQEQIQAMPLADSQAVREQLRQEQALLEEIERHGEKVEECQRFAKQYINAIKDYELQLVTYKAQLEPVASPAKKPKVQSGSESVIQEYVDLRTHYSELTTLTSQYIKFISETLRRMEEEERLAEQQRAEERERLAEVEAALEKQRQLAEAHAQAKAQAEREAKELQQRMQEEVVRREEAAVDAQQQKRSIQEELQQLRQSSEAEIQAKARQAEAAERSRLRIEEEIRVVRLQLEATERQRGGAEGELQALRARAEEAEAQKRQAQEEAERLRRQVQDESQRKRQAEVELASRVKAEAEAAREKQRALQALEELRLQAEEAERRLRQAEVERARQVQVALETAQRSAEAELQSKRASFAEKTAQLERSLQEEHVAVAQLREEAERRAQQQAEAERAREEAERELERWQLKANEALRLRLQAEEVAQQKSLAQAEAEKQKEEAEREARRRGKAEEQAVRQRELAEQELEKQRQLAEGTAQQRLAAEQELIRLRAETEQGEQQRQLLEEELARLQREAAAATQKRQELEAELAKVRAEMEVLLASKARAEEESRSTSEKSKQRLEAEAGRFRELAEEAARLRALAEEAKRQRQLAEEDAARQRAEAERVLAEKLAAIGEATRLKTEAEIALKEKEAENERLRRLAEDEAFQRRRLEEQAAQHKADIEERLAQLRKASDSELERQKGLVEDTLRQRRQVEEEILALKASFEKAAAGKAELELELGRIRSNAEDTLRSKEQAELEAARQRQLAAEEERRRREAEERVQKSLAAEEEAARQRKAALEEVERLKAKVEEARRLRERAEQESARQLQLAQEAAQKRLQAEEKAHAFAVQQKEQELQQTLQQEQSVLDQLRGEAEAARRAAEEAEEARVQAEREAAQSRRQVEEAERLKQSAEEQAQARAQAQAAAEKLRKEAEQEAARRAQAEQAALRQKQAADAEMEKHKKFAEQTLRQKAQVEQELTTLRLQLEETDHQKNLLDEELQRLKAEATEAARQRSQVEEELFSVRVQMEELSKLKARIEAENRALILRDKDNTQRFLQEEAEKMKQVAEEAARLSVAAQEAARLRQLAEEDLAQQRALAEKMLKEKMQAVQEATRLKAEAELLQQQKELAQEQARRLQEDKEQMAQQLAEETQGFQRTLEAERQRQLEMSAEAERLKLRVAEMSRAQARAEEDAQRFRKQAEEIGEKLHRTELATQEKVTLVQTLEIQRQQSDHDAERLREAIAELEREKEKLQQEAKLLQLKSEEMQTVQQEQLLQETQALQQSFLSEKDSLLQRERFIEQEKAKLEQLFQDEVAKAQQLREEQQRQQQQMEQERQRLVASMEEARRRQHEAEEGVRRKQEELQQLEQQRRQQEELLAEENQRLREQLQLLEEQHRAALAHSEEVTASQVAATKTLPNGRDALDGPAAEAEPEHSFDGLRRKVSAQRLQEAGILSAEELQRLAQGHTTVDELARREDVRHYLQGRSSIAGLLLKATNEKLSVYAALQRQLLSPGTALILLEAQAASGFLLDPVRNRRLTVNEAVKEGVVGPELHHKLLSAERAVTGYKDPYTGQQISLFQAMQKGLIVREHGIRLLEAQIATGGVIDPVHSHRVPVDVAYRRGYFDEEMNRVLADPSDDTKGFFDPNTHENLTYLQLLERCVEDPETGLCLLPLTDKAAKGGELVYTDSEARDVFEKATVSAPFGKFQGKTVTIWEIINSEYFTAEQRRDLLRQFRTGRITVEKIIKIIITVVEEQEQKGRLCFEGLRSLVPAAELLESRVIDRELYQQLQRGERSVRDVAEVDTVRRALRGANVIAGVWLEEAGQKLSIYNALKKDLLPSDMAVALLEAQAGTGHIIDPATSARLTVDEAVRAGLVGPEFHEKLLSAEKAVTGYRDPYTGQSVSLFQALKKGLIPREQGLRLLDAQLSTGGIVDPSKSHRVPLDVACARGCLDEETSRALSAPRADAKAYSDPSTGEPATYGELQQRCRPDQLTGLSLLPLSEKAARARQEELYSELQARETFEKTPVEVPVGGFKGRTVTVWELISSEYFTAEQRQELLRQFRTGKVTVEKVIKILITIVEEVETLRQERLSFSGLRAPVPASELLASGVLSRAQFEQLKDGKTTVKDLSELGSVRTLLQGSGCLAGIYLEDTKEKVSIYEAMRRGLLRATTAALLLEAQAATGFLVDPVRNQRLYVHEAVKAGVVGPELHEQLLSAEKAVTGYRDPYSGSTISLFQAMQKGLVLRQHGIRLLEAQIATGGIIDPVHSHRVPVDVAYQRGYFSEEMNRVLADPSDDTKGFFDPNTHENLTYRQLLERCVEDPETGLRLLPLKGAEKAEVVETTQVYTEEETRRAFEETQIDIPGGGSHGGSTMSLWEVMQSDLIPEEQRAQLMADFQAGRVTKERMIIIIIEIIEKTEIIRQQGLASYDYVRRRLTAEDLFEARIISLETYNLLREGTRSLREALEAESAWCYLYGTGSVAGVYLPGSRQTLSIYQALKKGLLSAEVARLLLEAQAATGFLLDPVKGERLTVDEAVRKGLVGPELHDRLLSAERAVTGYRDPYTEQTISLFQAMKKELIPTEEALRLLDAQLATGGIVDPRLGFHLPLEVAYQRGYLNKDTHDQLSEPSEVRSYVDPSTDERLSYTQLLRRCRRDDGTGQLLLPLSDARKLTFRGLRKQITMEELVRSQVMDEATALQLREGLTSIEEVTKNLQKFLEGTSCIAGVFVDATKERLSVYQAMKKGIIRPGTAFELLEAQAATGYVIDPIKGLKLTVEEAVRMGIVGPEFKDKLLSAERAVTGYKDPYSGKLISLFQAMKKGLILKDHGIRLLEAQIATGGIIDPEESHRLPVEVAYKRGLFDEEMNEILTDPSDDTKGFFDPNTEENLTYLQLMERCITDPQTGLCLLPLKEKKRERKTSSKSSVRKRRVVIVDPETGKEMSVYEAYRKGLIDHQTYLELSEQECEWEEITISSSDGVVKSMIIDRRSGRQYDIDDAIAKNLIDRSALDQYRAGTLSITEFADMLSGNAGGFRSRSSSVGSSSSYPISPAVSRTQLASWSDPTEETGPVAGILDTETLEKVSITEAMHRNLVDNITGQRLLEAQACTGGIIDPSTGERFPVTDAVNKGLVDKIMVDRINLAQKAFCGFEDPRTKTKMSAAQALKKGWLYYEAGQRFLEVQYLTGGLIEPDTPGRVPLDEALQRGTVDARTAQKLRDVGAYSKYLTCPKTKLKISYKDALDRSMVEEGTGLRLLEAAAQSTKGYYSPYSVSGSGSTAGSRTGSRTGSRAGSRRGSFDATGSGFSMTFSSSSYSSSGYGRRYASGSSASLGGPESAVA

The entries are a selection whose mix differs from that of the whole data set. Entries with a potency or affinity are not part of this list. The source made the active and inactive calls.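 Rule for the calls: active = displacement of at least 50% at 20 µM, with a fluorescence ratio check between 0.3 and a set limit; inactive = the rest.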

This assay addresses E3 ubiquitin-protein ligase SIAH1 (Homo sapiens) (UniProt Q8IUQ4). Put plainly: blockers of Siah-1 interaction with plectin peptide – biochemical, fluorescence polarization, rhodamine-plectin, uHTS, primary screen (AID 1817).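 Note: plate controls were Siah plus tracer with DMSO for no effect and tracer alone without Siah for full effect.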 As to conditions: Siah-1 / rhodamine-plectin peptide fluorescence polarization; at 20 µM; hits give high values.
Consider `CCc1ccc(OP(C)(=O)N2CCN(c3ccc([N+](=O)[O-])cc3)CC2)cc1` (stereo unspecified), for which the displacement is inactive: 13.2%. In the case of `Cc1cc(C)cc(OP(C)(=O)Nc2ccc(SC(F)(F)F)cc2)c1` (stereo unspecified) it was inactive: 4.6%. As for `CCOC(=O)c1ccc(NP(C)(=O)Oc2ccc(OC)cc2)cc1` (stereo unspecified), the figure is inactive: 0.7%.

Take `CCOP(C)(=S)SCC(=O)NC(C)C(=O)O` (stereo unspecified): the displacement was inactive: -2.7%.

On to `CP(=O)(Nc1ccccn1)Oc1ccc(Cl)cc1` (stereo unspecified), for which the displacement is inactive: -6.9%. As for `O=[N+]([O-])c1cc([N+](=O)[O-])c(-n2nnc3ccccc32)c([N+](=O)[O-])c1`, the figure is inactive: -0.9%.

Consider `Cc1nc2ccc3ccccc3c2s1.O=[N+]([O-])c1cc([N+](=O)[O-])c(O)c([N+](=O)[O-])c1`, for which the displacement was inactive: 5.9%. On to `O=[N+]([O-])c1cc([N+](=O)[O-])c(Nc2nnnn2CCO)c([N+](=O)[O-])c1`, for which the displacement is inactive: 1.75%. As for `CCOC(=O)C(CC)C1=NC(C)(C)Cc2ccccc21.O=[N+]([O-])c1cc([N+](=O)[O-])c(O)c([N+](=O)[O-])c1` (stereo unspecified), the figure is inactive: 5.1%; as for `CN1CCCCC1COC(=O)C1(O)c2ccccc2CCc2ccccc21` (stereo unspecified), inactive: -7%; as for `COc1ccccc1OP(C)(=O)Nc1c(C)cccc1C` (stereo unspecified), inactive: 4.7%. In the case of `CCCOc1ccc(NP(C)(=O)Oc2ccc(Cl)cc2)cc1` (stereo unspecified) it was inactive: 6.1%. On to `CP(=O)(Nc1ccc(SC(F)(F)F)cc1)Oc1ccccc1` (stereo unspecified), for which the displacement was inactive: 0.4%. As for `O=C(O)c1cccc(Nc2c([N+](=O)[O-])cc([N+](=O)[O-])cc2[N+](=O)[O-])c1`, the figure is inactive: 0%; as for `CC1=NCCc2c1[nH]c1ccccc21.O=[N+]([O-])c1cc([N+](=O)[O-])c(O)c([N+](=O)[O-])c1`, inactive: -7%. For `COc1ccccc1OP(C)(=O)Nc1cccc(Br)c1` (stereo unspecified), the displacement was inactive: -0.9%.

Turning to `CCOC(=O)c1ccc(NP(C)(=O)Oc2cc(C)cc(C)c2)cc1` (stereo unspecified), the displacement was inactive: -1.2%.

Regarding `Cc1cc(C)cc(OP(C)(=O)Nc2ccc(C)cc2C)c1` (stereo unspecified), the displacement is inactive: 3.8%.

`Cc1ccc(C)c(NP(C)(=O)Oc2ccccc2)c1` (stereo unspecified): the displacement was inactive: -3.2%. Turning to `Cc1cc(C)cc(OP(C)(=O)Nc2ccccn2)c1` (stereo unspecified), the displacement was inactive: -1.4%. In the case of `CP(=O)(Nc1cccc(Br)c1)Oc1ccccc1` (stereo unspecified) it was inactive: -0.1%.
